Consider 63 compounds from PubChem BioAssay AID1224905 (ICCB-Longwood Screening Facility, Harvard Medical School, 2016).

The chains behind the UniProt entries cited, without tags or fusion partners.
UniProt P08753, whole entry, looked up: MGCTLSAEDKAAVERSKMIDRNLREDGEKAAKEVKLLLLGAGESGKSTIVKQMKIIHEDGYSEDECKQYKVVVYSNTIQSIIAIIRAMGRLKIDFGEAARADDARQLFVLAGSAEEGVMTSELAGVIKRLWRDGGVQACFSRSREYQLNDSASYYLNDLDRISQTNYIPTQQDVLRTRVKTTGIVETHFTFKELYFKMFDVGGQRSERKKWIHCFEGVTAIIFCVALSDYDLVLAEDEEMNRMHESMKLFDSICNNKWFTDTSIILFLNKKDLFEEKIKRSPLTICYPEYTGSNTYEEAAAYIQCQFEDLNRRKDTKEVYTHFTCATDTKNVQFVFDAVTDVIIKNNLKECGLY

Among all 210,000 compounds or so, about 880 (0.42%) were called active.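 Rule for the calls: active = replicate mean at 85% of control or lower with very high polarization wells dropped (limit read from the data); inactive = the rest.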 The sample as a whole holds a higher share of actives than the screen did.

The experiment has as its target Guanine nucleotide-binding protein G(i) subunit alpha-3 (Rattus norvegicus) (UniProt P08753). The experiment in a line: disruptors of GIV-Galphai3 protein-protein interaction – biochemical, fluorescence polarization, FITC-GIV GBA peptide, rat Galphai3, primary screen (AID 1224905).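 Note: lower values mean more displacement of the GIV peptide from Galpha-i3.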 To be noted: Galpha-i3/FITC-GIV peptide fluorescence polarization, 90 min; hits give low values; scaled: aluminum fluoride 0%, vehicle 100%.
Regarding `O=C(CSc1nnc2ccc(C(=O)NCc3ccccc3)cn12)Nc1ccccc1Br`, the percent of control (FP) was 95.4% (inactive).

`CC(=O)Nc1cccc(NC(=O)c2sc3ncn(CC(=O)Nc4ccc(C)c(Cl)c4)c(=O)c3c2C)c1`: the percent of control (FP) was 107% (inactive).

Regarding `CC1(C)CC(=O)C2=C(C1)OC1=C(C(=O)CC(C)(C)C1)C2c1ccc(Cl)cc1`, the percent of control (FP) was 107% (inactive). The result for `Cn1cc(S(=O)(=O)N2CCCCC2)cc1C(=O)N1CCc2ccccc2C1` reads 107% (inactive); that for `COC(=O)c1ccc(C2C(S(=O)(=O)c3ccccc3)=C(O)C(=O)N2c2cccc(C)c2)cc1` (stereo not drawn), 101% (inactive). For `CCCCN1C(=O)C(C)(C(=O)N2CCN(C)CC2)Oc2cccnc21` (stereo not drawn), the percent of control (FP) was 101% (inactive).

Take `O=C(CCN1CCOCC1)Nc1cc(C(=O)Nc2ccc(F)c(F)c2)ccc1N1CC2CC(C1)c1cccc(=O)n1C2` (stereo not drawn): the percent of control (FP) is 115% (inactive). For the compound `COC(=O)c1c(C)c(=O)[nH]c2ccccc12`, the percent of control (FP) is 102% (inactive). With `O=C(O)c1c2ccccc2[nH]c2c1oc1cc(=O)ccc12` the figure was 81.8% (active); with `CCCCN(C)C(=O)CCn1c(=S)[nH]c2c(oc3ccccc32)c1=O`, 100% (inactive).

Regarding `CCn1cc(CCN2CCN(S(=O)(=O)c3ccc4c(c3)CCC4)CC2)c2cccnc21`, the percent of control (FP) was 108% (inactive). Take `CCN(Cc1ccccc1)C(=O)Cn1c(=O)n(CCc2ccccc2)c(=O)c2ccccc21`: the percent of control (FP) is 102% (inactive).

As for `O=S(=O)(c1cc(-c2noc(C3CC3)n2)cs1)N1CCN(c2ccc(Cl)cc2)CC1`, the percent of control (FP) is 104% (inactive). With `CCOc1ccc(NC(=O)Nc2ccc(Cn3cnc(-c4nc(-c5ccc(Cl)cc5)no4)c3)cc2)cc1` the figure was 102% (inactive); with `COC(=O)Cn1nc2c(-c3nc(-c4ccc(Cl)cc4)no3)cccn2c1=O`, 53.6% (active); with `C=CCNc1ncccc1-c1nc(-c2ccc(Cl)cc2)no1`, 96.7% (inactive). The result for `CCCCN(CC)C(=O)c1c[nH]c2ccc(S(=O)(=O)N(C)c3ccc(Br)cc3)cc2c1=O` reads 97.2% (inactive); that for `O=C1Nc2ccccc2O/C1=C\c1ccc(C(=O)NCc2ccco2)cc1`, 103% (inactive); that for `CCOc1ccc(NC(=O)Nc2cccc(OCc3cc(=O)n4ccccc4n3)c2)cc1`, 100% (inactive).

For the compound `COc1ccc2oc(=O)cc(-c3cc4ccccc4o3)c2c1`, the percent of control (FP) was 104% (inactive). The result for `O=c1c(-c2cc3ccccc3o2)[n+]([O-])c2ccccc2n1O` reads 9.86% (active); that for `Cn1c(SCC(N)=O)nnc1-c1cc2ccccc2o1`, 98.6% (inactive). With `Cc1ccc([N+](=O)[O-])cc1S(=O)(=O)n1c(SCc2ccccc2F)nc2ccccc21` the figure was 104% (inactive); with `COc1ccc(-c2ocnc2C(=O)O)cc1`, 108% (inactive); with `COc1cccc(N=Nc2c(O)[nH]c(=O)[nH]c2=O)c1`, 100% (inactive). With `COc1ccc(N=Nc2c(-c3ccc(OC)cc3)[nH]oc2=O)cc1` the figure was 49% (active); with `Cc1ccc(-c2nnc3ccccc3c2C(=O)Nc2ccc3c(c2)OCCO3)cc1`, 101% (inactive); with `COC(=O)/C=C1\Nc2ccccc2SC1=O`, 103% (inactive). Take `O=C1c2ccccc2S(=O)(=O)N1CC(O)COc1ccc2ccccc2c1` (stereo not drawn): the percent of control (FP) is 103% (inactive). With `Cn1c(NC(=O)c2ccccc2)nc2ccccc21` the figure was 97.8% (inactive); with `C/C(=N\c1nc2ccccc2n1C)c1cc(Cl)ccc1O`, 49.3% (active); with `Cn1c(=O)c(C(=O)NCCc2ccc(Cl)cc2)nc2ccccc21`, 105% (inactive). The result for `Cn1cc(C(=O)Nc2ccc(Br)cc2)c2[nH]c(=O)n(-c3ccccc3)c(=O)c21` reads 101% (inactive). Consider `COc1ccc(NC(=O)c2nn(C)c3c2CSc2ccc(Cl)cc2-3)cc1OC`, for which the percent of control (FP) was 102% (inactive). With `COc1ccc(NC(=O)C2CCN(S(=O)(=O)c3cc4c(cc3C)NC(=O)CO4)CC2)cc1OC` the figure was 98% (inactive); with `O=S(=O)(c1ccccc1Cl)N1CCN(c2ncnc3c2nnn3-c2ccc(F)cc2)CC1`, 98.7% (inactive); with `COc1ccc(-c2cc(-c3nc4c5sc6nc(C)cc(C)c6c5ncn4n3)[nH]n2)cc1`, 102% (inactive).

Regarding `Cc1cc(C)c2c(n1)sc1c(=O)n(C)cnc12`, the percent of control (FP) was 103% (inactive). The result for `Cc1cc(C)c2c(N)c(-c3n[nH]c(=S)n3C)sc2n1` reads -53.5% (active); that for `Cc1ccc(N2C(=O)C3C4c5ccccc5C(C=O)(c5ccccc54)C3C2=O)c(Br)c1` (stereo not drawn), 123% (inactive); that for `COCCNC(=O)c1ccccc1NC(=O)c1ccc(F)cc1`, 104% (inactive). With `COC(=O)CN1C(c2ccccc2)=Nc2ccc(Br)cc2C1c1ccccc1` (stereo not drawn) the figure was 107% (inactive); with `COc1ccc(CNS(=O)(=O)c2ccc(F)c(C(=O)Nc3ccc(Br)cc3F)c2)cc1`, 111% (inactive); with `Cc1nn(CC(=O)NCCc2c[nH]c3ccccc23)c(=O)c2noc(C)c12`, 98.7% (inactive). Take `N#C/C(=C/c1ccc(N2CCCCC2)o1)C(=O)NCCc1c[nH]c2ccccc12`: the percent of control (FP) was -90.3% (active).

As for `O=C(NCCc1c[nH]c2ccccc12)c1cc(=O)nc2sc(N3CCCC3)nn12`, the percent of control (FP) is 106% (inactive). Take `CCCCN(CC)c1ncnc2ccc(C)cc12`: the percent of control (FP) was 101% (inactive). Take `Cc1ccc2nc(/C(C#N)=C/c3ccc(-c4ccc(C(=O)OC(C)C)cc4)o3)[nH]c2c1`: the percent of control (FP) is -57.6% (active). `N#CC(C#N)=Cc1ccc(-c2cccc(C(=O)O)c2)o1`: the percent of control (FP) was 102% (inactive).

For `Cc1ccc2nc(/C(C#N)=C/c3ccccc3F)[nH]c2c1`, the percent of control (FP) is 113% (inactive). The result for `O=C(OCCN1CCCCC1)C1COc2ccccc2O1` (stereo not drawn) reads 102% (inactive). The result for `CC1CN(S(=O)(=O)c2ccc3c4c(cccc24)C(=O)N3)CC(C)O1` (stereo not drawn) reads 96.8% (inactive); that for `Nc1ccc2c3c(cccc13)C(=O)NC2=O`, -7.99% (active). With `CN(Cc1ccccc1)S(=O)(=O)c1ccc2c3c(cccc13)C(=O)N2` the figure was 104% (inactive); with `C#CCSc1c(CCCC)cnc2c1c(=O)n(C)c(=O)n2C`, 106% (inactive). Turning to `COC(CNC(=O)c1cn(C)c2ccc(S(=O)(=O)N3CCCC3)cc2c1=O)OC`, the percent of control (FP) is 106% (inactive). With `CCOc1ccc(/C(O)=C2/C(=O)C(=O)N(CCN3CCOCC3)C23C(=O)N(C)c2ccccc23)cc1` (stereo not drawn) the figure was 107% (inactive). The result for `Cc1cc(Br)ccc1NC(=O)Cn1c2ccccc2c(=O)c2ccccc21` reads 99.8% (inactive); that for `CCN1C(=O)c2cccc3c(NC(=S)NC(=O)c4ccccc4)ccc1c23`, -23.8% (active). The result for `CCN1C(=O)c2cccc3c(S(=O)(=O)N4CCN(CCO)CC4)ccc1c23` reads 108% (inactive); that for `CCN1C(=O)c2cccc3c(S(=O)(=O)N4CCc5ccccc54)ccc1c23`, 101% (inactive). In the case of `Cc1cc(C)n(C(=O)c2sccc2S(=O)(=O)N(C)c2ccc(C)c(Cl)c2)n1`, the percent of control (FP) is 95.4% (inactive). The result for `O=C(NCC(c1ccccc1Cl)N1CCCC1)c1cc(-c2ccccc2)on1` (stereo not drawn) reads 113% (inactive).
